Experiment: Inhibition of Escherichia coli thymidylate synthase

For `Nc1nc2[nH]cc(CCc3ccc(C(=O)N[C@@H](CCC(=O)O)C(=O)O)cc3)c2c(=O)[nH]1` [PEMETREXED], which IC50 is on record?
Its IC50 is 15 µM.

Source: ChEMBL document CHEMBL1156263, “Single agents with designed combination chemotherapy potential: synthesis and evaluation of substituted pyrimido[4,5-b]indoles as receptor tyrosine kinase and thymidylate synthase inhibitors and as antitumor agents” (J Med Chem, 2010)
